Assay results as given in ChEMBL document CHEMBL1138183, “Design, synthesis, and biological evaluation of isoquinoline-1,3,4-trione derivatives as potent caspase-3 inhibitors” (J Med Chem, 2006).

Molecular target: T1, Caspase-3 (Homo sapiens, UniProt P42574)
T1 sequence (P42574 whole entry): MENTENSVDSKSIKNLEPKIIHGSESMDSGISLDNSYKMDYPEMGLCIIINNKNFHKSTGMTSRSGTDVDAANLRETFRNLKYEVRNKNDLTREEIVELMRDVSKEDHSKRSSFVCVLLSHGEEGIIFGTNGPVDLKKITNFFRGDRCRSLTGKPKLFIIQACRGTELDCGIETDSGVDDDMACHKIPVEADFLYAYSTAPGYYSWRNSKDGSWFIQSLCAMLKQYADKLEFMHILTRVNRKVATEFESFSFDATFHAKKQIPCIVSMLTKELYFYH
Assay: Inhibition of caspase3

IC50: 21 nM
Structure (SMILES): CC(=O)N[C@@H](CC(=O)O)C(=O)N[C@@H](CCC(=O)O)C(=O)N[C@H](C(=O)N[C@H](C=O)CC(=O)O)C(C)C
